Test results taken from US20260042764A1, “COMPOSITIONS AND METHODS FOR INHIBITION OF KRAS” (TheRas, Inc., priority 2022, published 2026).
Read-outs that look alike come from different tables or passages of the source.

By UniProt entry, the sequences of proteins in these tests, tags left out. Residues count along the entry.
UniProt P01116, 2-169 isoform 2 G12D limits assumed: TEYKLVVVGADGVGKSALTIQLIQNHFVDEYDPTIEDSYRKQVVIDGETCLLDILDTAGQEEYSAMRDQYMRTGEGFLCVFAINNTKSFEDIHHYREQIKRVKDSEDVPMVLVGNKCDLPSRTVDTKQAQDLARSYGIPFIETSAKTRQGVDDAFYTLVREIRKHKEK

What was measured:
HPAC cells (KRAS G12D) = assay: Cell-based pERK HTRF assay in HPAC cells (Biological Example 5); conditions: read-out: HPAC pERK HTRF IC50
Procedure: (§1) Biological Example 5: Cell-based PERK HTRF assay in AsPC-1, SW1900, HPAC, Capan-2, RKN, H358, HCT116, KP-2, H1573, A549, MKN1, and HT1080 cells
(§2) The inhibition of ERK phosphorylation, as measured using the HTRF Advanced Phospho-ERK 1/2 (Thr202/Tyr204) Detection Assay kit (Perkin Elmer), was used to determine the effectiveness of test compounds in disrupting KRAS-driven protein/effector signaling in cells.
(§3) On day 1, cells were seeded into 96-well plates at 2.5×10^4 cells/well in 100 μL of complete growth media supplemented with 10% fetal bovine serum (FBS) and incubated at 37° C., in the presence of 5% CO2.
(§4) On day 2, cells were treated with compounds diluted in DMSO at 0.25% final DMSO concentration. Compounds were dosed in a 9-point concentration curve with three-fold dilution between concentrations. Cells were incubated in the presence of compound for two hours at 37° C. […]
(§5) Following this incubation period, plates were centrifuged at 500×g for one minute and analyzed on a CLARIOstar plate reader. Data was imported into Microsoft Excel and the signal from the 665 nm channel was divided by the signal from the 620 nm channel. % pERK was calculated as: […]
(§6) Data was imported to the Prism software package (Graphpad) and EC50 values were calculated using the log (inhibitor) vs, response—variable slopc (Four parameters) model.

[1] = target: Avi-KRAS G12D (2-169) GTP/RAF1 RBD-3xFLAG (51-131) (Homo sapiens, UniProt P01116, G12D); assay: Raf1-KRAS G12D-GTP disruption HTRF assay (Biological Example 3); conditions: read-out: Raf1-GTP-KRAS G12D disruption, GTP-loaded
Procedure: Biological Example 3: Disrupting RAS-Effector Binding HTRF Assay
A protein:protein interaction (PPI) Homogeneous Time Resolved Fluorescence (HTRF) assay was used to determine the effectiveness of compounds in disrupting KRAS protein and effector (RAF1) binding.
The HTRF assay used the following reagents and proteins: (i) 50 nM Avi-KRAS G12D (2-169) GTP/RAF1 RBD-3xFLAG (51-131): (ii) 50 nM Avi-KRAS G12C (2-169) GTP/RAF1 RBD-3xFLAG (51-131): (iii) 50 nM Avi-KRAS G12V (2-169) GTP/RAF1 RBD-3xFLAG (51-131); (iv) 50 nM Avi-KRAS WT (2-169) GTP/RAF1 RBD-3xFLAG (51-131); and (v) 75 nM 3xFLAG-RAF1 RBD (51-131)-Avi. The assay buffer included: 50 mM Tris pH 7.5 (Invitrogen, 15567-027), 100 mM NaCl (Sigma, S5150-IL), 5 mM MgCl2 (Sigma, 63069), 0.1% BSA (Sigma, A7030), 0.01% Tween 20 (Sigma, P7949), 10% DMSO (Cell Signaling, 12611). The bead buffer included: 50 mM Tris pH 7.5 (Invitrogen, 15567-027), 0.01% Tween 20 (Sigma, P7949). An assay volume of 20 μL was used in a 384 well plate-low volume format. Compound titration: 30-0.005 μM, 3x dilution series.
The HTRF assay employed the following protocol: […]
Plates were analyzed on an Envision plate reader using the following setting: Excitation 320 nm, Bandwidth 75 nm; Emission 615 nm, Bandwidth 85 nm; Gain 100%; Flashes 100; Lag 60 μs. […] Data was plotted and analyzed using Prism 8. […]

GP2d cells (KRAS G12D) = assay: Cell-based pERK HTRF assay in GP2d cell (Biological Example 2)
H358 cells (KRAS G12C) = assay: Cell-based pERK HTRF assay in H358 cells (Biological Example 5); conditions: read-out: H358 pERK HTRF IC50
Procedure: as §1, §2, §3, §4, §5, §6

- IC50 (HPAC cells (KRAS G12D)): < 100 nM
- IC50 [1]: < 100 nM
- IC50 (GP2d cells (KRAS G12D); read-out: PERK-Gp2D-, pERK HTRF, class symbols): < 100 nM
- IC50 (GP2d cells (KRAS G12D); read-out: pERK-Gp2D): < 100 nM
- IC50 (H358 cells (KRAS G12C)): < 100 nM
Structure (SMILES): CCN(c1nc(OC[C@@]23CCCN2C[C@H](F)C3)nc2c(F)c(-c3ccc(F)c4sc(N)c(C#N)c34)c(C(F)(F)F)cc12)[C@H]1CCN(C(=O)OC2COC2)C1
